Among the data in PubChem BioAssay AID504634 (The Scripps Research Institute Molecular Screening Center, 2011) are inhibition values, retold here.

By UniProt entry, the sequences of proteins in these tests, tags left out.
UniProt P47898, whole entry, looked up: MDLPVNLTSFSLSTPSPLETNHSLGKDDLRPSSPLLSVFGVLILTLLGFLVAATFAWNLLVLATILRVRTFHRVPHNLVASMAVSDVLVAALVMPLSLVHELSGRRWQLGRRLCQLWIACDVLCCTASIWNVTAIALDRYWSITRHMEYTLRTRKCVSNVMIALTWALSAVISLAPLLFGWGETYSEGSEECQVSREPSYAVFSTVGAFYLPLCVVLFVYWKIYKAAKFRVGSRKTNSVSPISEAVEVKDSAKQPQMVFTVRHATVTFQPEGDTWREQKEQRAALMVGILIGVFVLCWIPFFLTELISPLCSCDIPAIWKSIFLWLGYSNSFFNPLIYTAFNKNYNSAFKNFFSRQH

This is a selection; strong and weak results do not stand in their true shares. Calls of active or inactive are those of the source. Cut-off read from the data, not from the text of the source: active = inhibition mostly above about 23% (no sharp cut-off); inactive = mostly below about 18%.

The target of this test is 5-hydroxytryptamine receptor 5A (Homo sapiens) (UniProt P47898). Briefly: HTR5A inverse agonists in luminescence cell assay, primary screen, counter-screen for OPRM1-OPRD1 heterodimer inverse agonist project, full-deck HTS (AID 504634).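 Note: 0% = cells with DMSO and 100% = no-cell wells with DMSO.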 The settings on record: HTR5A cell line, inverse agonism, at 9.3 µM, hits give high values.
As to `CC(C)CCNC(=O)CC1C(=O)N(Cc2ccccc2)C(C)c2nc3ccccc3n21` (stereo not given), the inhibition was inactive: 4.4%.

`CC(C)(C)NC(=O)Cn1c(SCC(N)=O)nc2ccccc21`: the inhibition was inactive: -18.2%.

For the compound `O=C(CCNC(=O)N1CCn2c1nc1ccccc12)NCc1ccc(Cl)cc1`, the inhibition was inactive: -9.58%.

In the case of `Cc1cc(NC(=O)CSc2nc3ccccc3n2CC(=O)N2CCC(C)CC2)no1`, the inhibition was inactive: -0.31%. Then `CC(=O)Nc1ccc(Oc2c([N+](=O)[O-])cc([N+](=O)[O-])cc2[N+](=O)[O-])cc1`, with inactive: 27.1%; and `Cc1nc2cc(C(F)(F)F)ccc2n1C1CCN(Cc2nnnn2CCc2ccccc2)CC1`, with inactive: -19.2%.

Take `Cn1c(=O)c2c(ncn2CC(=O)Nc2cc(S(=O)(=O)N3CCCCC3)ccc2Cl)n(C)c1=O`: the inhibition was inactive: -14.6%. Then `CN1C(=O)CC(n2c(CO)nc3ccccc32)C1=O` (stereo not given), with inactive: 20.6%; and `CCOC(=O)c1ccc(NC(=O)C2CC(=O)Nc3nc4ccccc4n32)cc1` (stereo not given), with inactive: -9.21%. Then `CCC(C(=O)NC1CCCC1)n1c(SCc2cccc(C)c2)nc2ccncc21` (stereo not given), with inactive: -18.2%; and `COc1ccc2c(c1)C1(Nc3ccccc3-c3nc4ccccc4n31)C(=O)N2` (stereo not given), with inactive: -15.2%. Then `CC(=O)Nc1ccc([As](=O)(O)O)c(O)c1`, with inactive: 2.42%; and `O=S(=O)(c1ccc(F)cc1)N1CCn2c(nc3ccccc32)C1`, with inactive: -16.8%. Turning to `CSCC[C@H](NC(=O)N1CCn2c1nc1ccccc12)C(=O)NC1CCCCC1`, the inhibition was inactive: -1.16%. In the case of `CC1=NNC(=O)C1CCC(=O)N/N=C/C=C/c1ccccc1` (stereo not given), the inhibition was inactive: -9.31%.

In the case of `COCCN1CCn2c(nc3cc(NC(=O)Cn4nc(C)c5ccccc5c4=O)ccc32)C1`, the inhibition was inactive: 2.84%.

`COc1ccc(CCNC(=O)[C@H](C)NC(=O)N2CCn3c2nc2ccccc23)cc1OC`: the inhibition was inactive: 0.34%. Then `CC(C)[C@H](NC(=O)N1CCn2c1nc1ccccc12)C(=O)NCc1ccc(F)cc1`, with inactive: -0.25%. Then `COCC(=O)N(C)[C@H]1C[C@H]2c3cc(Oc4ccccc4C)ccc3CCN2C(=O)[C@H]1[C@H](C)O`, with inactive: 0.94%. With `COc1ccccc1OCC(O)Cn1c(=N)n(CCN2CCCCC2)c2ccccc21` (stereo not given), the inhibition was inactive: -22.4%. Then `CC(C)C[C@H](NC(=O)N1CCn2c1nc1ccccc12)C(=O)NCc1ccccc1`, with inactive: -7.44%; and `Fc1ccc2c(c1)nnn2C1CCN(Cc2nnnn2CCc2ccccc2)CC1`, with inactive: -23.6%. Then `O=C(Cn1cnc2ccccc21)Nc1ccc(C(=O)O)cc1`, with inactive: -24.5%.

On to `O=C(C1COc2ccccc2O1)N1CCn2c(nc3ccccc32)C1` (stereo not given), for which the inhibition is inactive: -3.64%. Then `C[C@@H]1C=CCP(=O)(Oc2ccccc2)O1` (stereo not given in full), with inactive: 8.37%. Then `C[C@H](O)[C@@H]1C(=O)N2CCc3ccc(-c4ccccc4)cc3[C@@H]2C[C@@H]1N(C)C(=O)c1ccc(C#N)cc1`, with inactive: -3.47%. Then `O=C(CCNC(=O)N1CCn2c1nc1ccccc12)NCc1ccccc1Cl`, with inactive: -1.94%; and `CN(C)CCn1c(N)nc2ccccc21`, with inactive: -22.5%; and `CN(C)C(=O)CSc1nc2ccccc2n1CC(=O)N1CCN(c2ccccc2)CC1`, with inactive: 3.05%. As for `CCC(=O)Nc1nc2ccccc2n1CCN(C)C`, the inhibition is inactive: -22.9%. Then `C[C@H]1OP(=O)(Oc2ccccc2)C[C@@H]2O[C@@H]21` (stereo not given in full), with inactive: 21.3%; and `Cc1ccc2c(c1)C1CN(C)CCC1N2Sc1ccccc1[N+](=O)[O-]` (stereo not given), with inactive: 7.07%. Then `Cc1ccc2c(c1)C1CN(C)CCC1N2C(=O)Nc1cccc(Cl)c1` (stereo not given), with inactive: -24.7%; and `CCOc1ccc(S(=O)(=O)N(C)c2ccc(OCC(=O)N3c4ccc(C)cc4C4CN(C)CCC43)cc2)cc1` (stereo not given), with inactive: -4.66%. Then `Cc1ccccc1Oc1ccc2c(c1)[C@@H]1C[C@H](N(C)C(=O)Nc3cc(Cl)cc(Cl)c3)[C@H]([C@H](C)O)C(=O)N1CC2`, with inactive: -25.5%; and `CC(C)(C)NC(=O)Cn1c(SCC(=O)Nc2nccs2)nc2ccccc21`, with inactive: -0.9%; and `Cc1ccccc1CN(C)C(=O)COC(=O)C(O)(c1ccccc1)c1ccccc1`, with inactive: -29.8%. Take `O=C(CCCCCNC(=O)N1CCn2c1nc1ccccc12)N[C@H](C(=O)O)c1ccccc1`: the inhibition was inactive: -17.1%. Consider `Cc1ccc2c(c1)C1CN(C)CCC1N2C(=O)COc1ccc(N(C)S(=O)(=O)c2cccs2)cc1` (stereo not given), for which the inhibition was inactive: -1.25%. Then `COC(=O)c1ccccc1NC(=O)Cn1c(-c2nonc2N)nc2ccccc21`, with inactive: -13.7%; and `Cn1c(=O)c2c(ncn2CC(=O)N/N=C/C(Cl)=C/c2ccccc2)n(C)c1=O`, with inactive: 30.9%; and `O=C(Cn1cnc2ccccc21)N/N=C/C(Br)=C/c1ccccc1`, with inactive: -8.23%. Take `COC(=O)C1(C)COP(=O)(NCc2ccccc2)OC1` (stereo not given): the inhibition is inactive: 6.23%. For `CC(NC(=O)CCCCCNC(=O)N1CCn2c1nc1ccccc12)c1ccccc1` (stereo not given), the inhibition was inactive: 5.03%. Then `N#C/C(=C\c1ccc(N(CCBr)CCBr)cc1)C(N)=O`, with inactive: -24.3%; and `O=C(Cn1c(SCC(=O)N2CCCc3ccccc32)nc2ccccc21)N1CCCC1`, with inactive: 6.72%; and `Cc1ccc2c(c1)C1CN(C)CCC1N2S(=O)(=O)c1cccc(F)c1` (stereo not given), with inactive: -5.54%.

Consider `CC(=O)c1ccc(N2CC2c2ccncc2)cc1` (stereo not given), for which the inhibition was inactive: 11.5%. Then `CC(O)CNc1nc2ccccc2n1CC(=O)NCCc1ccc(Cl)cc1` (stereo not given), with inactive: -6.36%. Then `O=C(Nc1nc2ccccc2n1CCN1CCCCC1)C1CCCCC1`, with inactive: 13.6%. Then `CC1Cc2ccccc2N1C(=O)Cn1cnc2c1c(=O)n(C)c(=O)n2C` (stereo not given), with inactive: 4.27%; and `CC(NC(=O)CCNC(=O)N1CCn2c1nc1ccccc12)c1ccccc1` (stereo not given), with inactive: -12.8%. As to `Cc1ccc(-c2csc(NCCn3c(C(F)(F)F)nc4ccccc43)n2)cc1`, the inhibition is inactive: -8.35%. Then `Cn1c(=O)c2c(nc(CN3CCN(C(=O)c4ccco4)CC3)n2CC(N)=O)n(C)c1=O`, with inactive: -10.9%; and `COc1ccccc1C(=O)Nc1ccc2c(c1)nc1n2CCN(C2CCCCC2)C1`, with inactive: -23%.

The term inhibition denotes the change of the read-out against control, counted positive when it falls.
